Source: publication PMC12428582, “2-Styrylquinolines with Push-Pull Architectures as Sensors for β-Amyloid Aggregation with Theranostic Properties” (International Journal of Molecular Sciences, 2025)

Sequences of proteins named here, by UniProt entry; tags and fusion partners are left off. Residues count along the entry.
UniProt P05067, 672-713 limits assumed: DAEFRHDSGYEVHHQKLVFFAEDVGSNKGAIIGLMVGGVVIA

Molecular target: T1, fibrils of β-amyloid peptide (human Aβ1–42) (Homo sapiens, UniProt P05067)
T1 construct: amyloid β protein fragment 1–42 (MW = 4514.04); purchased Merck-Sigma-Aldrich
Test: Fluorescence titration of sensors with β-amyloid fibrils (Kd by non-linear fitting)
Conditions: sensor 1.0 × 10^−6 M, protein 0 to 2.0 × 10^−6 M, ICT band excitation/emission maxima, read-out: Binding constants values (Kd) and standard deviations
Protocol: Amyloid fibrils from human Aβ1–42 peptide were prepared using a procedure that combines several protocols described in the literature. A 2.2 × 10^−4 M solution of commercially available Aβ1–42 peptide was prepared in a small volume of 100 mM sodium phosphate buffer (pH = 7.04) containing EDTA in concentration 10 mM. This solution was incubated at 37 °C during 72 h in a dry bath supported on an orbital shaker working at 200 rpm. […] Subsequently, 10 μL of the freshly prepared amyloid beta fibrils (c = 1.0 × 10^−4 M) were added to each of the solutions containing the sensors. After a stabilization period of 10 min after each fibril addition at 37 °C, and then equilibration time of 5 min at room temperature, fluorescence emission spectra were recorded for each sensor at their excitation maxima. The increase in fluorescence intensity shown by compounds 6 when titrating with beta-amyloid fibrils was used to determine the protein/sensor binding constants. […]

Cc1ccc2c(c1)sc(-c1ccc(N(C)C)cc1)[n+]2C [ThT, Thioflavin T]
Kd: 16.8 ± 0.84 µM
